Reference: patent US11236106B2, “Cycloalkane-1,3-diamine derivative” (Daiichi Sankyo Company, Limited, priority 2018, dated 2022)

Tests used:
Assay in all cases: cells
Settings in all cases: Homo sapiens
[1] = system: MV-4-11 cells
[2] = system: K562 cells
[3] = system: MOLM-13 cells
[4] = MV4-11, 72 h, read-out: GI50, cell growth inhibitory activity, MV-4-11, day 3, MV-4-11 cells, cultured 3 days, assigned by order and values
[5] = MV4-11, 168 h, read-out: GI50, cell growth inhibitory activity, MV-4-11, day 7, MV-4-11 cells, cultured 7 days, assigned by order and values
[6] = K562, 72 h, read-out: GI50, cell growth inhibitory activity, K562, day 3
[7] = K562, 168 h, read-out: GI50, cell growth inhibitory activity, K562, day 7
[8] = MOLM-13, 72 h, read-out: GI50, cell growth inhibitory activity, MOLM-13, day 3, MOLM-13 cells, cultured 3 days, assigned by order and values
[9] = MOLM-13, 168 h, read-out: GI50, cell growth inhibitory activity, MOLM-13, day 7, MOLM-13 cells, cultured 7 days, assigned by order and values
[10] = MV4-11, 72 h, read-out: GI50 (μM) Day3 MV4;11, MV4;11, Day3
[11] = MV4-11, 168 h, read-out: GI50 (μM) Day7 MV4;11, MV4;11, Day7
[12] = K562, 72 h, read-out: GI50 (μM) Day3 K562
[13] = K562, 168 h, read-out: GI50 (μM) Day7 K562
[14] = MOLM-13, 72 h, read-out: GI50 (μM) Day3 MOLM-13, MOLM-13, Day3
[15] = MOLM-13, 168 h, read-out: GI50 (μM) Day7 MOLM-13, MOLM-13, Day7

CCOc1cc(-c2ccc(CN[C@H]3C[C@@H](O)[C@@H](N(C)c4ncnc5sc(CC(F)(F)F)cc45)C3)cc2)cnc1OC [Example 80, (1R,2S,4R)-4-({[4-(5-ethoxy-6-methoxypyridin-3-yl)phenyl]methyl}amino)-2-{methyl[6-(2,2,2-trifluoroethyl)thieno[2,3-d]pyrimidin-4-yl]amino}cyclopentan-1-ol hydrochloride]
GI50 [1, 4]: 0.434 µM
GI50 [1, 5]: 0.246 µM
GI50 [2, 6]: 2.79 µM
GI50 [2, 7]: 2.16 µM
GI50 [3, 8]: 1.88 µM
GI50 [3, 9]: 0.705 µM

CN(c1ncnc2sc(CC(F)(F)F)cc12)[C@@H]1CC[C@H](NCc2ccc(C(=O)NCc3cnn(C)c3)cc2)C1 [Example 49, N-[(1-methyl-1H-pyrazol-4-yl)methyl]-4-({[(1S,3R)-3-{methyl[6-(2,2,2-trifluoroethyl)thieno[2,3-d]pyrimidin-4-yl]amino}cyclopentyl]amino}methyl)benzamide hydrochloride]
GI50 [1, 10]: 0.598 µM
GI50 [1, 11]: 0.49 µM
GI50 [2, 12]: 9.74 µM
GI50 [2, 13]: 3.18 µM
GI50 [3, 14]: 2.52 µM
GI50 [3, 15]: 1.13 µM

COc1cncc(-c2ccc(CN[C@@H]3C[C@H](N(C)c4ncnc5sc(CC(F)(F)F)cc45)[C@H](O)[C@@H]3O)cc2)c1 [Example 20A, (1S,2R,3R,5S)-3-({[4-(5-methoxypyridin-3-yl)phenyl]methyl}amino)-5-{methyl[6-(2,2,2-trifluoroethyl)thieno[2,3-d]pyrimidin-4-yl]amino}cyclopentane-1,2-diol Hydrochloride]
GI50 [1, 10]: 0.367 µM
GI50 [1, 11]: 0.177 µM
GI50 [2, 12]: 5.73 µM
GI50 [2, 13]: 2.86 µM
GI50 [3, 14]: 2.9 µM
GI50 [3, 15]: 0.352 µM

CN(c1ncnc2sc(CC(F)(F)F)cc12)[C@@H]1CC[C@H](NCc2ccc(-c3cnc4c(c3)OCCO4)cc2)C1 [Example 63, (1R,3S)-N^3-{[4-(2,3-dihydro[l,4]dioxino[2,3-b]pyridin-7-yl)phenyl]methyl}-N^1-methyl-N^1-[6-(2,2,2-trifluoroethyl)thieno[2,3-d]pyrimidin-4-yl]cyclopentane-1,3-diamine hydrochloride]
GI50 [1, 4]: 0.682 µM
GI50 [1, 5]: 0.445 µM
GI50 [2, 6]: 2.55 µM
GI50 [2, 7]: 1.48 µM
GI50 [3, 8]: 1.88 µM
GI50 [3, 9]: 1.21 µM

COc1cncc(-c2ccc(CN[C@H]3CC[C@@H](N(C)c4ncnc5sc(C6CC6)cc45)C3)cc2)c1 [Example 45, (1R,3S)-N^1-(6-cyclopropylthieno[2,3-d]pyrimidin-4-yl)-N^3-{[4-(5-methoxypyridin-3-yl)phenyl]methyl}-N^1-methylcyclopentane-1,3-diamine hydrochloride]
GI50 [1, 10]: 0.865 µM
GI50 [1, 11]: 0.701 µM
GI50 [2, 12]: 3.27 µM
GI50 [2, 13]: 2 µM
GI50 [3, 14]: 1.78 µM
GI50 [3, 15]: 1.4 µM

O=C1CCC(c2ccc(CN[C@H]3CCC[C@@H](Nc4ncnc5sc(CC(F)(F)F)cc45)C3)cc2)N1 (mixture of isomers) [Example 39, 5-[4-({[(1S,3R)-3-{[6-(2,2,2-trifluoroethyl)thieno[2,3-d]pyrimidin-4-yl[amino}cyclohexyl]amino}methyl)phenyl]pyrrolidin-2-one hydrochloride (diastereomer mixture)]
GI50 [1, 10]: 8.14 µM
GI50 [2, 12]: > 10 µM
GI50 [3, 14]: > 10 µM

COc1nc(N(C)[C@H]2C[C@@H](NCc3ccc(-c4cc(OC)c(Oc5ccccc5)nn4)cc3)C[C@H]2O)c2cc(CC(F)(F)F)sc2n1 [Example 114, (1R,2S,4R)-4-({[4-(5-methoxy-6-phenoxypyridazin-3-yl)phenyl]methyl}amino)-2-{[2-methoxy-6-(2,2,2-trifluoroethy)thieno[2,3-d]pyrimidin-4-yl](methyl)amino}cyclopentan-1-ol hydrochloride]
GI50 [1, 5]: 0.044 µM
GI50 [2, 7]: 1.94 µM
GI50 [3, 9]: 0.143 µM

COc1cc(-c2cnc(OC)c(OC)c2)ccc1CN[C@H]1C[C@@H](O)[C@@H](N(C)c2ncnc3sc(CC(F)(F)F)cc23)C1 [Example 77, (1R,2S,4R)-4-({[4-(5,6-dimethoxypyridin-3-yl)-2-methoxyphenyl]methyl}amino)-2-{methyl[6-(2,2,2-trifluoroethyl)thieno[2,3-d]pyrimidin-4-yl]amino}cyclopentan-1-ol hydrochloride]
GI50 [1, 4]: 0.35 µM
GI50 [1, 5]: 0.16 µM
GI50 [2, 6]: 2.6 µM
GI50 [2, 7]: 1.62 µM
GI50 [3, 8]: 1.17 µM
GI50 [3, 9]: 0.501 µM

CN(c1ncnc2sc(CC(F)(F)F)cc12)[C@@H]1CC[C@H](NCc2ccc(S(=O)(=O)N3CCCCCC3)cc2)C1 [Example 59, (1R,3S)-N^3-{[4-(azepane-1-sulfonyl)phenyl]methyl)-N^1methyl-N^1-[6-(2,2,2-trifluoroethyl)thieno[2,3-d]pyrimidin-4-yl]cyclopentane-1,3-diamine hydrochloride]
GI50 [1, 10]: 0.894 µM
GI50 [1, 11]: 0.451 µM
GI50 [2, 12]: 1.75 µM
GI50 [2, 13]: 1.05 µM
GI50 [3, 14]: 1.22 µM
GI50 [3, 15]: 1.13 µM

COc1cncc(-c2ccc(CN[C@H]3C[C@@H](O)[C@@H](N(C)c4ncnc5sc(CC(F)(F)F)cc45)C3)cc2)c1 [Example 129, (1R,2S,4R)-4-({[4-(5-methoxypyridin-3-yl)phenyl]methyl}amino)-2-{methyl[6-(2,2,2-trifluoroethyl)thieno[2,3-d]pyrimidin-4-yl]amino}cyclopentan-1-ol Hydrochloride]
GI50 [1, 4]: 0.0968 µM
GI50 [1, 5]: 0.0378 µM
GI50 [2, 6]: 5.21 µM
GI50 [2, 7]: 2.74 µM
GI50 [3, 8]: 1.25 µM
GI50 [3, 9]: 0.104 µM

CN(c1ncnc2sc(CC(F)(F)F)cc12)[C@H]1C[C@@H](NCc2ccc(-c3cccc(N(C)S(C)(=O)=O)c3)cc2)C[C@H]1O [Example 71, N-[4′-({[(1R,3R,4S)-3-hydroxy-4-{methyl[6-(2,2,2-trifluoroethyl)thieno[2,3-d]pyrimidin-4-yl]amino}cyclopentyl]amino}methyl)[1,1′-biphenyl]-3-yl]-N-methylmethanesulfonamide hydrochloride]
GI50 [1, 4]: 0.285 µM
GI50 [1, 5]: 0.157 µM
GI50 [2, 6]: 2.8 µM
GI50 [2, 7]: 1.77 µM
GI50 [3, 8]: 0.964 µM
GI50 [3, 9]: 0.469 µM

COc1cc(-c2ccc(CN[C@H]3C[C@@H](O)[C@@H](N(C)c4ncncc4Oc4ccc(F)cc4-c4ccccc4C(C)C)C3)cc2)nnc1OC [Example 101, (1R,2S,4R)-4-({[4-(5,6-dimethoxypyridazin-3-yl)phenyl]methyl}amino)-2-[(5-{[5-fluoro-2′-(propan-2-yl)[1,1′-biphenyl]-2-yl]oxy}pyrimidin-4-yl)(methyl)amino]cyclopentan-1-ol hydrochloride]
GI50 [1, 4]: 0.0563 µM
GI50 [1, 5]: 0.0502 µM
GI50 [2, 6]: 2.76 µM
GI50 [2, 7]: 2.03 µM
GI50 [3, 8]: 0.216 µM
GI50 [3, 9]: 0.132 µM

CC(=O)Nc1ccc(CN[C@H]2CCC[C@@H](Nc3ncnc4sc(CC(F)(F)F)cc34)C2)cc1 [Example 29, N-[4-({[(1S,3R)-3-{[6-(2,2,2-trifluoroethyl)thieno[2,3-d]pyrimidin-4-yl]amino}cyclohexyl]amino}methyl)phenyl]acetamide hydrochloride]
GI50 [1, 10]: 1.26 µM
GI50 [1, 11]: 1.07 µM
GI50 [2, 12]: > 10 µM
GI50 [2, 13]: 7.77 µM
GI50 [3, 15]: 1.66 µM

COc1cc(-c2ccc(CN[C@H]3C[C@@H](O)[C@@H](N(C)c4ncnc5sc(CC(F)(F)F)cc45)C3)cc2)nnc1N1CCC1 [Example 105, (1R,2S,4R)-4-[({4-[6-(azetidin-1-yl)-5-methoxypyridazin-3-yl]phenyl}methyl)amino]-2-{methyl[6-(2,2,2-trifluoroethyl)thieno[2,3-d]pyrimidin-4-yl]amino}cyclopentan-1-ol hydrochloride]
GI50 [1, 4]: 0.156 µM
GI50 [1, 5]: 0.129 µM
GI50 [2, 6]: > 5 µM
GI50 [2, 7]: 3.37 µM
GI50 [3, 8]: 1.63 µM
GI50 [3, 9]: 0.285 µM

FC(F)(F)Cc1cc2c(N[C@@H]3CCC[C@H](NCc4ccc(-c5ncco5)cc4)C3)ncnc2s1 [Example 35, (1S,3R)-N^1-{[4-(1,3-oxazol-2-yl)phenyl]methyl}-N^3-[6-(2,2,2-trifluoroethyl)thieno[2,3-d]pyrimidin-4-yl]cyclohexane-1,3-diamine hydrochloride]
GI50 [1, 10]: 4.34 µM
GI50 [2, 12]: 6.97 µM
GI50 [3, 14]: 5.72 µM

COc1ncc(-c2ccc(CN[C@H]3C[C@@H](O)[C@@H](N(C)c4ncnc5sc(CC(F)(F)F)cc45)C3)cc2)nc1OC [Example 96, (1R,2S,4R)-4-({[4-(5,6-dimethoxypyrazin-2-yl)phenyl]methyl}amino)-2-{methyl[6-(2,2,2-trifluoroethyl)thieno[2,3-d]pyrimidin-4-yl]amino}cyclopentan-1-ol hydrochloride]
GI50 [1, 4]: 0.126 µM
GI50 [1, 5]: 0.158 µM
GI50 [2, 6]: 3.04 µM
GI50 [2, 7]: 2.61 µM
GI50 [3, 8]: 0.268 µM
GI50 [3, 9]: 0.281 µM

CN(c1ncnc2sc(CC(F)(F)F)cc12)[C@@H]1CC[C@H](NCc2ccc(N3CCc4ccccc43)cc2)C1 [Example 56, (1R,3S)-N^3-{[4-(2)-3-dihydro-1H-indol-1-yl)phenyl]methyl}-N^1-methyl-N^1-[6-(2,2,2-trifluoroethyl)thieno[2,3-d]pyrimidin-4-yl]cyclopentane-1,3-diamine hydrochloride]
GI50 [1, 10]: 0.769 µM
GI50 [1, 11]: 0.468 µM
GI50 [2, 12]: 1.26 µM
GI50 [2, 13]: 0.809 µM
GI50 [3, 14]: 1.02 µM
GI50 [3, 15]: 1.07 µM

Counter-ions that a name gives are not always drawn. Like-named read-outs stand apart in the source and are kept apart here.
